# Antibody variant affinities, Ab-14 light chain, assay 1

Target peptide (SARS-CoV-2 spike, HR2 region): PDVDLGDISGINAS

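Phage display of a naive human antibody library on the peptide gave the parent. Library AAYL50 holds single substitutions and randomly drawn double and triple substitutions in the CDRs. In AlphaSeq, yeast of one mating type display the scFv and yeast of the other type display the target. Binding brings cells together so that they mate, and sequencing counts the barcode pairs among the diploids. Scores were corrected for input abundance and mapped to Kd with protein pairs of known affinity run in the same pool. Mating was done three times.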

Each scFv is VH, three GGGGS repeats, VL, as in the parent Ab-14, and differs from it in the CDRs of the light chain only.
VH: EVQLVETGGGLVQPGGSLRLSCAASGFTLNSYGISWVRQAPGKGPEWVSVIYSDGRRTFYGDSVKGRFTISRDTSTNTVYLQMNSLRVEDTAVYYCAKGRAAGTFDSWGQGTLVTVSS
VL: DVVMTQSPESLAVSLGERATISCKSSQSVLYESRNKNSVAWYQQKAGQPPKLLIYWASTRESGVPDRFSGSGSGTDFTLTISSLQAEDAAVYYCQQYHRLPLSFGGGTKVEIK

Positions count from residue 1 of the parent VL; S25V puts V in place of S. The read-out is the apparent dissociation constant on a log10 scale (nM): the lower, the stronger. Replicates are averaged; those with no signal do not enter the mean. An entry "ND" has no value in the source: the pair was not observed among the diploids in that replicate. This suggests poor binding but is not conclusive. Parent in this assay: reference entry 0.65, copy in this library 1.68. As a blank, each scFv also met three strains without target: over library AAYL50, 18% of these pairings were detected, typically at 4.19 and seldom below 2.99. Also given: how often the same scFv was detected with the empty control strains, with their mean in brackets.

changes | replicates, log10 nM | log10 Kd (nM), mean | signal with controls
S25V S38H S58C | ND / ND / ND | ND | 0 of 9
K24R Y31G N37V | 1.44 / 1.36 / 1.73 | 1.51 | 0 of 9
S28P E32L R60T | ND / ND / ND | ND | 0 of 9
V39W W56Y E61G | ND / ND / ND | ND | 1 of 9 (3.57)
K36T S62D Q96K | 4.11 / ND / ND | 4.11 | 3 of 9 (4.06)
T59M Q95V S103N | 1.23 / 1.29 / 1.59 | 1.37 | 1 of 9 (3.87)
L30C N37S E61H | 2.25 / 2.35 / 2.36 | 2.32 | 2 of 9 (4.34)
Y31C A57N T59C | 2.05 / 2.08 / 2.29 | 2.14 | 2 of 9 (3.34)
N35F V39K L100R | ND / ND / ND | ND | 0 of 9
S25Y N37W R60D | 3.91 / ND / ND | 3.91 | 2 of 9 (3.65)
S25D K36A S103I | ND / 1.53 / 1.65 | 1.59 | 0 of 9
K24I A57W S58N | ND / 2.79 / ND | 2.79 | 1 of 9 (4.21)
Q95D L102D | 2.05 / 2.35 / 1.95 | 2.12 | 1 of 9 (3.58)
V39R A57W L100Q | ND / ND / 5.81 | 5.81 | 3 of 9 (4.00)
S38E S58A Q96A | 6.14 / 3.86 / 5.16 | 5.05 | 4 of 9 (4.56)
K36M N37S A40F | ND / ND / ND | ND | 3 of 9 (3.49)
K36R S58E Q95T | 0.62 / 0.98 / 0.76 | 0.79 | 0 of 9
S26N S28P K36S | 1.76 / 1.84 / 2.21 | 1.93 | 0 of 9
V29C W56G R60P | 1.02 / 1.08 / 0.93 | 1.01 | 1 of 9 (3.61)
S26L R34G L102Y | 2.64 / 2.43 / 2.34 | 2.47 | 1 of 9 (3.79)
T59W Q95I R99A | 1.78 / 1.37 / 1.66 | 1.60 | 1 of 9 (2.81)
K24L A40Y Q95C | ND / ND / ND | ND | 3 of 9 (4.37)
V29T Y31C Q96W | 3.91 / 3.94 / 3.26 | 3.70 | 4 of 9 (3.79)
S25T S28N W56N | -0.38 / 0.01 / -0.32 | -0.23 | 3 of 9 (4.01)
A57Q T59C Y97C | ND / ND / ND | ND | 1 of 9 (2.53)
N37Y Q96D Y97N | ND / ND / ND | ND | 0 of 9
S26R S28R Q95L | 2.95 / ND / ND | 2.95 | 0 of 9
S25F L30Q E32I | 0.45 / 0.70 / 0.74 | 0.63 | 3 of 9 (4.37)
Q27W R60T R99M | ND / ND / ND | ND | 0 of 9
E32R V39P Q96E | 6.09 / 4.37 / 4.54 | 5.00 | 5 of 9 (3.85)
K24Y S33E | 1.03 / 0.96 / 0.90 | 0.97 | 0 of 9
R34K H98P R99H | 4.61 / ND / ND | 4.61 | 3 of 9 (3.88)
E32W R60A Q95R | ND / 4.86 / 4.00 | 4.43 | 1 of 9 (3.40)
Y97L R99G | ND / ND / ND | ND | 0 of 9
E32R A40Y L100T | ND / ND / ND | ND | 0 of 9
K24M R99L L102K | ND / 3.92 / ND | 3.92 | 1 of 9 (3.93)

A selection of 5 entries from above:

| changes | replicates, log10 nM | log10 Kd (nM), mean | signal with controls |
|---|---|---|---|
| S25D K36A S103I | ND / 1.53 / 1.65 | 1.59 | 0 of 9 |
| V39W W56Y E61G | ND / ND / ND | ND | 1 of 9 (3.57) |
| K36R S58E Q95T | 0.62 / 0.98 / 0.76 | 0.79 | 0 of 9 |
| E32R A40Y L100T | ND / ND / ND | ND | 0 of 9 |
| K24Y S33E | 1.03 / 0.96 / 0.90 | 0.97 | 0 of 9 |

From the AlphaSeq antibody data of Engelhart et al. 2022 (doi:10.1038/s41597-022-01779-4), copy in the FLAb collection.